Experimental data reported in patent US8729074B2, “Inhibitors of PI3 kinase” (Amgen Inc., priority 2009, dated 2014).

Biological target: mTOR (Homo sapiens (Human), UniProt P42345)
Test: In vitro mTOR Lanthascreen assay
Assay type: biochemical
Settings: average if run more than once
From the text: The Invitrogen (Carlsbad, Calif.) mammalian target of rapamycin (mTOR) Lanthascreen assay can be used to quantitate mTOR kinase activity in an in vitro setting. Active mTOR phosphorylates eukaryotic translation initiation factor 4E binding protein 1 (4E-BP1) on residue threonine 46. This phosphorylation event can be detected with a phospho-specific terbium (Tb) labeled Ab, in turn bringing the Tb label in close proximity to the GFP tagged 4E-BP 1 and allowing for time-resolved fluorescence resonance energy transfer (TR-FRET), which correlates 4E-BP1 phosphorylation levels with mTOR kinase activity.
Enzyme reaction buffer can be prepared in deionized water containing 50 mM HEPES (pH 7.5), 0.01% Polysorbate 20, 1 mM EGTA, and 10 mM MnCl2.
Dilutions of the compound to be tested can be prepared in 96-well polypropylene plates (Fisher Scientific, Waltham, Mass.). One row represents a 10-point dose of compound diluted 1:3 in enzyme reaction buffer and 20% dimethyl sulfoxide (DMSO). The top concentration for all compounds is 36 μM. […]
The enzyme assay can be terminated upon the addition of 10 μL of 20 mM EDTA and 4 nM Tb-labeled anti-phospho-4E-BP1 [T46] antibody (Invitrogen, Carlsbad, Calif.). The assay plate can then be incubated at room temperature for 1 hour and results read on a Tecan Safire II plate reader (Tecan, Männedorf, Switzerland). […]

In the case of `COc1cc(-c2cnc3ccc(N4C(=O)OC[C@H]4Cc4ccccc4)cn23)cnc1OC` [Example 14, (4R)-4-Benzyl-3-(3-(5,6-dimethoxy-3-pyridinyl)imidazo[1,2-a]pyridin-6-yl)-1,3-oxazolidin-2-one], the IC50 is reported as 5.1 µM.
